The values that follow come from article PMC7595425 (PLoS ONE, 2020).

Sequences of proteins named here, by UniProt entry; tags and fusion partners are left off.
UniProt P08183, whole entry: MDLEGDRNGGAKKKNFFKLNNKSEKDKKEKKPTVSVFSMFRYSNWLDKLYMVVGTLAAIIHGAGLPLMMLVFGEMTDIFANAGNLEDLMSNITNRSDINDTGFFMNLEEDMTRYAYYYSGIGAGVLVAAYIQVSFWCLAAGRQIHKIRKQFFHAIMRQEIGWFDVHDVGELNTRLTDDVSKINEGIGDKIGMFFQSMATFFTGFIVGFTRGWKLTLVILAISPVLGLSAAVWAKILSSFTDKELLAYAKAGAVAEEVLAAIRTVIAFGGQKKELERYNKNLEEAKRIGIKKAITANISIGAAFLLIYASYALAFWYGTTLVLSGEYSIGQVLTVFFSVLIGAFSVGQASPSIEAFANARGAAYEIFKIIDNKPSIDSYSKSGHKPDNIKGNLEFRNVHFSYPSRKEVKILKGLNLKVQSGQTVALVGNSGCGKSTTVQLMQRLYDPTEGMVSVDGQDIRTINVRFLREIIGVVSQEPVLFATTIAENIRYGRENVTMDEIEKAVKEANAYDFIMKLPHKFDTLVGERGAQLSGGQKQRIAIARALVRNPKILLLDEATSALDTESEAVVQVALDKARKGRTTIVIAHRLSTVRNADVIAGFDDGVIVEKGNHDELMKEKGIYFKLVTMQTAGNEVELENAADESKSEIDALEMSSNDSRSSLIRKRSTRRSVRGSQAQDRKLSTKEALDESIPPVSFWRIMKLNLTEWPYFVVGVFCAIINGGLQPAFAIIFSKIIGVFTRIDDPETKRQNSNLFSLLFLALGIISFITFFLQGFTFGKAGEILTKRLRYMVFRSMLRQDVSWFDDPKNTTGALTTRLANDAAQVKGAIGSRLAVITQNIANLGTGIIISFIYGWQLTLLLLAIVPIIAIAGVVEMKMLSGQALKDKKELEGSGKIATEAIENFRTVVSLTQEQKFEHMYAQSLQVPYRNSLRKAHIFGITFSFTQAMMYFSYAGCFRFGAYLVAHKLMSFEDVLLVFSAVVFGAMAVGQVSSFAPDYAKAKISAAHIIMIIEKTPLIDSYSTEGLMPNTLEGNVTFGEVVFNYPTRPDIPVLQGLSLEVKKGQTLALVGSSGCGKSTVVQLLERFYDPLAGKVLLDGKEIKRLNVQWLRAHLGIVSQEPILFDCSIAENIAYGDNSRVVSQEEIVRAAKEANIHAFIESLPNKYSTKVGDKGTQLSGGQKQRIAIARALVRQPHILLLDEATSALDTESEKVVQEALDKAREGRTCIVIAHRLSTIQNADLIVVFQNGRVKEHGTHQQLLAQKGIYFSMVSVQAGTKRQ

Data set [1] has as its target T1, P-gp (Homo sapiens, UniProt P08183). Description: Bidirectional assay across LLC-GA5-CoL150 cell monolayers. Particulars: substrate alone, 10 μM; mean ± S.E.M.
Data set [2] deals with Caco-2 cell monolayers. Description: Bidirectional assay across Caco-2 cell monolayers. Particulars: substrate alone, 10 μM, mean ± S.E.M.
The target in data set [3] is T1, P-gp. Particulars: pimozide 0.01 to 100 μM; mean ± S.D.

On to `O=c1[nH]c2ccccc2n1C1CCN(CCCC(c2ccc(F)cc2)c2ccc(F)cc2)CC1` [Pimozide], for which the figures for the “Efflux Ratio” value in data set [1], in data set [2] and in data set [2] (listed as pimozide) were 3.62 ± 1.04, 0.21±0.01 and “less than 1”, respectively. The “kd (first-order rate constant)” value in data set [3] came out at 0.67 ± 0.14 pmol/min/mg protein.
